# In US7268128B2, “1,3,5-trisubstituted-5-phenyl and 5-pyridyl pyrazolopyrimidinone derivatives having PDE7 inhibiting action” (Ausbio Pharma Co., Ltd., priority 2001, dated 2007):
# Amino acid sequences for entries named in this document (tags omitted). A change or cut given only in a name is not applied to a line headed by its entry.
# UniProt Q13946: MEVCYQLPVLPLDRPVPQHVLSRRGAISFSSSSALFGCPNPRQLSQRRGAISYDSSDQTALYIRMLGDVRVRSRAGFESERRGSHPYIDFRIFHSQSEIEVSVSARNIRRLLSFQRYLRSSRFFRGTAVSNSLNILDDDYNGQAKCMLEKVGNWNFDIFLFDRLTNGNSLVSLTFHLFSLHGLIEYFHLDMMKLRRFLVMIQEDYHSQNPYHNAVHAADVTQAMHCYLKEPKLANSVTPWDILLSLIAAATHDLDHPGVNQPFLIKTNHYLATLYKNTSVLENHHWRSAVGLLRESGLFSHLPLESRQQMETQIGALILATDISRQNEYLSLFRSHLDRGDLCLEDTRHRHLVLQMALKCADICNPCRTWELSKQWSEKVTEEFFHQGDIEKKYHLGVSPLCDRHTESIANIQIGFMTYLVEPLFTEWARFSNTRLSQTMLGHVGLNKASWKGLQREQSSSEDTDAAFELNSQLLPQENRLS
# Target: T1, PDE7 (type VII phosphodiesterase) (Homo sapiens, UniProt Q13946)
# T1 construct: endogenous in cells; host or cells: MOLT-4 (ATCC CRL-1582), soluble fraction, HiTrapQ anion-exchange fraction
# Test: PDE7 inhibiting activity (3H-cAMP hydrolysis, active fraction from MOLT-4 cells)
# Type: biochemical
# Conditions: PDE7 fraction from MOLT-4 cells, 0.064 μM cAMP, 10 μM rolipram present, 2 hours at 25° C.; read-out: IC50 values for phosphodiesterase inhibiting activities (PDE7)
# Procedure: To evaluate the compounds of the present invention for the ability to suppress PDE7 (type VII phosphodiesterase), the method of Biochemical Pharmacol. 48(6), 1219-1223 (1994) was partially modified to perform the following assay:
# 1) PDE7 (type VII phosphodiesterase) active fraction was obtained. That is, human acute lymphoblastoid lymphoma T cell strain MOLT-4 (purchasable from ATCC under ATCC No. CRL-1582) was cultured in RPMI1640 medium containing 10% fetal bovine serum to obtain 5×10^8 MOLT4 cells. The cells were harvested by centrifugation, and suspended in 10 ml of buffer A (25 mM tris-HCl, 5 mM 2-mercaptoethanol, 2 mM benzamidine, 2 mM EDTA, 0.1 mM 4-(2-aminoethyl)benzenesulfonyl hydrochloride, pH 7=7.5). The cells were homogenized in a Polytoron homogenizer, and centrifuged (4° C., 25,000 G, 10 min). The supernatant was further ultracentrifuged (4° C., 100,000 G, 60 min), and the resulting supernatant was filtered through a 0.2 μm filter to obtain a soluble fraction. […]
# 3) The test compounds at desired concentrations were each reacted for 2 hours at 25° C. in a reactant mixture containing 20 mM tris-HCl (pH 7.5), 1 mM MgCl2, 100 μM EDTA, 330 μg/ml bovine serum albumin, 4 μg/ml 5′-nucleotidase, 0.1 μCi^3H-cAMP (0.064 μM cAMP), 10 μM rolipram, and the type VII phosphodiesterase stored solution. […] Then, the resulting supernatant was measure for radioactivity. […]
smiles,measurement,value
"COc1cc(N)ccc1-c1nc2c(C)nn(C3CCCCC3)c2c(=O)[nH]1 [Example 9, 5-(4-Amino-2-methoxyphenyl)-1-cyclohexyl-3-methyl-1,6-dihydro-7H-pyrazolo[4,3-d]pyrimidin-7-one]",IC50,≤ 1000 nM
